pIC50: −log10 of the molar value.
How the values were obtained:
[1] = target: T1, ERRβ (Homo sapiens, UniProt O95718); assay: TR-FRET (LanthaScreen) ERRβ binding assay; conditions: maximum concentration tested 10 μM
T1 construct: purchased Life Technologies
T1 sequence (O95718 208-432 limits assumed): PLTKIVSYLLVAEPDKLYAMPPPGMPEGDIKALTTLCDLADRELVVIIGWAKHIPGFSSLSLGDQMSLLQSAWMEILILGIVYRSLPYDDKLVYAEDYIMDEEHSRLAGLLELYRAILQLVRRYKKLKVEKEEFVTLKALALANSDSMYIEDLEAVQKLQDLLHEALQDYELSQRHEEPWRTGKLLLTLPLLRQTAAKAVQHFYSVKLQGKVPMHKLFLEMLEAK
Method: ERRγ binding assay was conducted with Lantascreen assay system (Life Technologies, Grand Island, NY, USA), which was based on TR-FRET, followed by manufacturer’s instruction. Briefly, compounds were serially diluted with 2-fold staring from 10 μM and 10 μL of each diluent was added in 384 well plate. Then, GST-conjugated ERRγ LBD (ligand-binding domain) was added to be 5 nM. Next, the mixture of fluorescien-conjugated coactivator PGC1a (final concentration to be 500 nM) and Tb-a-GST antibody (final concentration to be 5 nM) was added. The reaction mixture was incubated at rt in dark state for 1 h. TR-FRET activity was measured at 340 nm excitation and 495 nm/520 nm dual emission using microplate reader (Biotek, SynergyNeo, Winooski, VT, USA) and IC50 value was calculated with the Prism 6 software.
ERRs and ERα binding assay used same assay system as ERRγ’s, Lanthascreen assay system. Therefore, procedure was same as ERRγ binding assay except tested enzymes (ERRα, ERRβ, ERα). Used reference compounds were 4-OHT 1 for ERα and ERRβ binding assay, and XCT790 for ERRα binding assay.

Chains of the proteins cited; added tags and fusions are not shown. Lines headed by an entry give the natural chain unless they say otherwise; changes in a name come on top.
UniProt Q12809: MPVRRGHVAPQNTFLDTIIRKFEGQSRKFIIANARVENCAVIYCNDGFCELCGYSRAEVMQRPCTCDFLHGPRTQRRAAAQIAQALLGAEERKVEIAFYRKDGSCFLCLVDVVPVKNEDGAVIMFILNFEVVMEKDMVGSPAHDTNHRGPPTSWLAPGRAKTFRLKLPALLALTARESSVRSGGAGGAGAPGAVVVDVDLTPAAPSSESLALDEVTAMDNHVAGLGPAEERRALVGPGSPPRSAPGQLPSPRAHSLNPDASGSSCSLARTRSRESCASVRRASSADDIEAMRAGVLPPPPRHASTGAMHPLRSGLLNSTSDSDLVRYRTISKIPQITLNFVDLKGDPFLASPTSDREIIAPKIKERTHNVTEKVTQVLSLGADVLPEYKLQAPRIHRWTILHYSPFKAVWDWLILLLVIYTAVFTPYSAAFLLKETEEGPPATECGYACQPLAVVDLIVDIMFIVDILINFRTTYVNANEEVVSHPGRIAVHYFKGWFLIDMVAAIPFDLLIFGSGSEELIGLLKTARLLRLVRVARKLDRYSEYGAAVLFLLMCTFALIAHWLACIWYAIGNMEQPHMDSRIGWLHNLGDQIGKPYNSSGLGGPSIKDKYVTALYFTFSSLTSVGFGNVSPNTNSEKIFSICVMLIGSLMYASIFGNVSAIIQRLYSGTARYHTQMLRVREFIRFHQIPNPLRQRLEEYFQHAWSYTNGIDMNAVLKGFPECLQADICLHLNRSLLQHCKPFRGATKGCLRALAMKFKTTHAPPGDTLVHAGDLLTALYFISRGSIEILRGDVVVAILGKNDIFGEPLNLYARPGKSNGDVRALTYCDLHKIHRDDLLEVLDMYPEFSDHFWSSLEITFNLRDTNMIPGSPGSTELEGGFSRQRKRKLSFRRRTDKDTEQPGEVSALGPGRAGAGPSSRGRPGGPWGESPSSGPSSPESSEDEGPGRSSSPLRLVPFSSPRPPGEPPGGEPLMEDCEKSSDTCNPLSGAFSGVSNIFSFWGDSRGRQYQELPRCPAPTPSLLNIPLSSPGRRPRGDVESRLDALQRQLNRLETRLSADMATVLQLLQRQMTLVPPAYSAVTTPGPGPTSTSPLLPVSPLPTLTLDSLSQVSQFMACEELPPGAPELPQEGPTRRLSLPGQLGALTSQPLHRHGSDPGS

[2] = target: hERG channel (Homo sapiens, UniProt Q12809); assay: hERG channel binding assay (predictor hERG fluorescence polarization)

`CN(C)CCOc1ccc(/C(=C(/CCCO)c2ccccc2)c2ccc(O)cc2)cc1` [Compound 4, GSK5182, reference compound] showed a pIC50 [1] of less than 5.00 and a pIC50 [2] of less than 4.52.

Source: article PMC6273807, “Identification of Selective ERRγ Inverse Agonists” (Molecules, 2016)
